Columns and labels:
[1] = tested on: male Fisher F-344 rats; assay: Fentanyl intravenous self-administration
[2] = biological target: mKOR (Mus musculus, UniProt P33534); assay: [35S]GTPγS functional assay, mouse opioid receptors; assay type: biochemical; conditions: [35S]GTPγS binding assay
[3] = tested on: male rats; assay: Cue-induced reinstatement of responding previously maintained by morphine or fentanyl; conditions: 10 mg/kg i.p.

Chains of the proteins cited; added tags and fusions are not shown. Lines headed by an entry give the natural chain unless they say otherwise; changes in a name come on top.
UniProt P33534: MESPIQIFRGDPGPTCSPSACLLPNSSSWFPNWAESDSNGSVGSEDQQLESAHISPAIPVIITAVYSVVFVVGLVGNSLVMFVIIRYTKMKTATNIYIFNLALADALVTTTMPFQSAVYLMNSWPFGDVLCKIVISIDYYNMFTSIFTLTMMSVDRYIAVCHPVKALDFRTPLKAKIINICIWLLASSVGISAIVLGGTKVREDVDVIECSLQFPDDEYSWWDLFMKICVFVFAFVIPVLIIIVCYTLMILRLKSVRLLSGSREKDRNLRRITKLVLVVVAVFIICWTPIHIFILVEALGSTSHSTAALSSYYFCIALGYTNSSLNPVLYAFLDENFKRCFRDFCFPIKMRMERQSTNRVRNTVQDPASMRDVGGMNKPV

CCC1CC2CC3c4oc5ccc(O)cc5c4CCN(C2)C13 (single isomer, unassigned)
duration of statistically significant suppression of fentanyl intake ([1]; single 40 mg/kg i.p.): 4 days
effect on fentanyl intake ([1]; single reset dose (40 mg/kg i.p.)): reduced the intake of fentanyl for at least five days
selectivity for KOR over DOR [2]: about seven-fold
selectivity for KOR versus MOR [2]: more than ten-fold
cue-induced morphine reinstatement [3]: strongly reduced
reduction of cue-induced reinstatement responding (fentanyl) [3]: approximately 60%

Source: PMC11415492 (Nature Communications, 2024)
